Laboratory results as given in paper PMC10931833, “Simultaneous Purification of Human Interferon Alpha-2b and Serum Albumin Using Bioprivileged Fluorinated Ionic Liquid-Based Aqueous Biphasic Systems” (International Journal of Molecular Sciences, 2024).
Values joined by “and” are separate entries in the source; they are usually repeats but may differ in a detail not shown here. Equal entries are not always repeated.

Protein sequences, listed by entry. Tags and fused reporters are not part of them. Residues count along the entry.
UniProt P02769, 25-607: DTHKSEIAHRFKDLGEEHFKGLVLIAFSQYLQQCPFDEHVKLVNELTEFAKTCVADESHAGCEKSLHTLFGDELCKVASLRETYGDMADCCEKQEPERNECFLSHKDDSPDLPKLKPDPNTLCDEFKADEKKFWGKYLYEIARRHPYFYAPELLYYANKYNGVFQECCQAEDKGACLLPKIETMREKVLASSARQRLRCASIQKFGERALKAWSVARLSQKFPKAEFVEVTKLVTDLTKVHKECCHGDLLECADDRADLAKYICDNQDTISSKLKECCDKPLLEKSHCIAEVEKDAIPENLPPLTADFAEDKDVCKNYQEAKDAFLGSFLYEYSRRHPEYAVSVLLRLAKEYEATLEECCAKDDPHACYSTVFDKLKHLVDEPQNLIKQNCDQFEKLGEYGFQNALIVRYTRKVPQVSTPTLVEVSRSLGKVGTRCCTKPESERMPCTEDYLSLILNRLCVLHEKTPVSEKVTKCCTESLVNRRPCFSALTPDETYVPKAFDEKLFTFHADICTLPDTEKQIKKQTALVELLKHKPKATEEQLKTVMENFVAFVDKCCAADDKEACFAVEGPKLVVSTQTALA

How the values were obtained:
[1] = set-up: method as in ref 44 (IFN-α2b), 91 (BSA), 96 (Lys); conditions: ref 44 (IFN-α2b), 91 (BSA), 96 (Lys); cited from earlier work
BSA [2] = target: T1, BSA (Bos taurus, UniProt P02769); assay: DSC thermal unfolding of BSA in water and aqueous solutions of ABS phase-forming components; format: physicochemical, bovine; set-up: purchased Millipore Sigma-Aldrich; conditions: 1.0 mg/mL BSA in water
Method: Differential scanning calorimetry (DSC) measurements were performed with Nano DSC equipment, as detailed in Section 3, and used to determine the melting temperature (T m ) and enthalpy ( Δ H) of protein unfolding. DSC analyzes changes in the structure and stability of proteins as thermal transitions at the nanoscale. Using DSC to measure heat capacity as a function of the temperature of a well-studied protein such as BSA provides keen insights into folding and unfolding processes, as well as factors affecting stability. Due to the volume and concentration requirements of the DSC technique, and the constraints in available quantities of IFN- α 2b the DSC experiments on the ABS phase-forming components’ effect on the structural properties of proteins were attained only for BSA.
The T m of BSA, which corresponds to the thermal unfolding transition midpoint, was measured in the absence and presence of the ABS phase-forming components at increasing concentrations (see Figure 1 and Table 2).

BSA [3] = target: T1, BSA; assay: CD thermal unfolding (Tm) of BSA; format: physicochemical, bovine; set-up: purchased Millipore Sigma-Aldrich; conditions: 1.2-1.6 mg/mL BSA in [N1112(OH)][H2PO4]-rich phase of BP#8
Excerpt: The thermal stability assessed by far-UV CD is solely determined through the thermal decay of the alpha-helical structure.

BSA [4] = target: T1, BSA; assay: DSC of BSA in or recovered from ABS phases

Bovine serum albumin [BSA]
iso-electric point [1]: ~4.7
Tm (BSA [2]): 75.59 °C
ΔHcal/ΔHvH (BSA [2]): 0.997
Tm, Ellipticity 192 nm (BSA [3]): 75.765 °C
DSC melting temperature Tm (BSA [4]; BSA 0.25 mg/mL in water): 79.86 ± 0.014 °C
DSC melting temperature Tm (BSA [4]; BSA 0.25 mg/mL recovered from [C2C1Im][C4F9SO3]-rich phase of BP#5, resuspended in water): 78.79 ± 0.02 °C
DSC melting temperature Tm (BSA [4]; BSA in [N1112(OH)][H2PO4]-rp (BP#8), 1.2–1.6 mg/mL per title): 43.61 ± 0.01 °C and 43.61 ± 0.011 °C
